Calls of active or inactive are those of the source. The rule behind the calls is not given here.
Target: Folate receptor beta (Homo sapiens) (UniProt P14207)
Experiment: Displacement of [3H]folic acid from human FR-beta receptor expressed in Chinese hamster D4 cells measured after 15 mins
Format: cell-based

Sequences of proteins named here, by UniProt entry; tags and fusion partners are left off. A change or cut given only in a name is not applied to a line headed by its entry.
UniProt P14207: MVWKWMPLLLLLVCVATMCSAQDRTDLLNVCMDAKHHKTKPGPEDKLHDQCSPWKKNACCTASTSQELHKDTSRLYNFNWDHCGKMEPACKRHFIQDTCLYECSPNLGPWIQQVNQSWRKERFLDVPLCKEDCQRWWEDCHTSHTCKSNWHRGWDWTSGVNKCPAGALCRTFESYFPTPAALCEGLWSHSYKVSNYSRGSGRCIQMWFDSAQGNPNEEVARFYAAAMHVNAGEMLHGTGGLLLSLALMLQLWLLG

In the case of `Nc1nc2[nH]c(CCCCc3ccc(C(=O)N[C@@H](CCC(=O)O)C(=O)O)nc3)cc2c(=O)[nH]1`, the inhibition is reported as “Active”.

Source: ChEMBL document CHEMBL4190373, “Tumor Targeting with Novel Pyridyl 6-Substituted Pyrrolo[2,3- d]Pyrimidine Antifolates via Cellular Uptake by Folate Receptor α and the Proton-Coupled Folate Transporter and Inhibition of De Novo Purine Nucleotide Biosynthesis” (J Med Chem, 2018)
